Results as given in patent publication US9655822B2, “Hydrated lamellar phases or liposomes which contain a fatty monoamine or a cationic polymer which promotes intracellular penetration, and a cosmetic or pharmaceutical composition containing same, as well as a method of screening such a substance” (BASF Beauty Care Solutions France S.A.S., priority 2004, dated 2017).

Test system: normal human fibroblasts

dextran texas red [#D-3329 dextran texas red]
Toxicity: Yes
